Measured values as given in PMC6789782, “Safety Pharmacological Evaluation of the Coffee Component, Caffeoylquinic Acid, and Its Metabolites, Using Ex Vivo and In Vitro Profiling Assays” (Pharmaceuticals, 2019).

Tested on: rat hippocampal slices

O=C(O)/C=C/c1ccc(O)c(O)c1 [CA, caffeic acid]
Normalized PS AUC: 1.15 ± 0.02
